The text below walks through data of ChEMBL document CHEMBL1165946, “Development of antiproliferative phenylmaleimides that activate the unfolded protein response” (Bioorg Med Chem, 2010).

Test [1] can be described thus: Upregulation of unfolded protein response-related DDIT3 gene expression in human Hep3B cells at 10 uM after 1 hr by RT-PCR analysis relative to control. The class given is functional, cell-based. The conditions noted are these: Hep 3B2. A digest of the protocol: (§1)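 HEP3B cells treated 1 h with 10 µM analogue, compared with untreated cells. Gene expression measured by real-time PCR with SYBR chemistry and gene-specific primer pairs, triplicate wells, GAPDH as endogenous control. Analysed by the comparative Ct method and expressed as fold induction over untreated control (n = 3, SD). Significance set at p <0.05.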

Test [2] is described as follows: Upregulation of unfolded protein response-related ATF4 gene expression in human Hep3B cells at 10 uM after 1 hr by RT-PCR analysis relative to control. It counts as functional, cell-based. Conditions: Hep 3B2. A digest of the protocol: as §1

For the compound `O=C1C(SCCO)=C(SCCO)C(=O)N1c1ccc(-c2ccccc2)cc1`, the fold change (FC) in test [1] and in test [2] was 2 each time.
